One test deals with T1, MAO-B (Rattus norvegicus, UniProt P19643).
T1 construct: from tissue; host or cells: rat brain homogenate per the methods
The experiment in a line: Reversibility study of MAO-B inhibition (centrifugation and washing). The test is classed as biochemical. The conditions noted are these: 30 min inhibition (6 at 20 µM, I-deprenyl 20 nM); three consecutive centrifugations and washings with buffer. How it is done: (§1) Lineweaver-Burk reciprocal plots of initial velocity and substrate concentrations (0.1-1 mM) are presented. […] Lineweaver-Burk reciprocal plots of initial velocity and substrate concentrations (0.1-1 mM) are presented. […] Lineweaver-Burk reciprocal plots of initial velocity and substrate concentrations (0.1-1 mM) are presented. […] Three consecutive centrifuges were performed with buffer. […] 5 µM). All solution were made using Tris buffer pH7.4. […] 5 µM). All solution were made using Tris buffer pH7.4. […] 5 µM). All solution were made using Tris buffer pH7.4. Spectra were obtained after a Short-time incubation

Sequences of proteins named here, by UniProt entry; tags and fusion partners are left off.
UniProt P19643, whole entry: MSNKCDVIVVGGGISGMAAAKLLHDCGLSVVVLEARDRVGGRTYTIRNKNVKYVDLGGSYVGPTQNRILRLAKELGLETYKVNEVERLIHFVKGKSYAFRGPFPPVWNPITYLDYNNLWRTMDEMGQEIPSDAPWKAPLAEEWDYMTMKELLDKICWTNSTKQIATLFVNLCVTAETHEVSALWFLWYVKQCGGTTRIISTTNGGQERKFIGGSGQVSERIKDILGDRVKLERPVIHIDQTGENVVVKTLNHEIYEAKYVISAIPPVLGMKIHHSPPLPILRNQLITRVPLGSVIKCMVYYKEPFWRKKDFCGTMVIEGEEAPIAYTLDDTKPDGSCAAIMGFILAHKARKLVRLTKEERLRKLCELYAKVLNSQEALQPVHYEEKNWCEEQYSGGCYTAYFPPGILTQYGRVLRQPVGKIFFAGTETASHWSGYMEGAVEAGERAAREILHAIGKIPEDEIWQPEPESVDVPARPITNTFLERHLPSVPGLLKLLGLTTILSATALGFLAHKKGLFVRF
UniProt P21396, whole entry: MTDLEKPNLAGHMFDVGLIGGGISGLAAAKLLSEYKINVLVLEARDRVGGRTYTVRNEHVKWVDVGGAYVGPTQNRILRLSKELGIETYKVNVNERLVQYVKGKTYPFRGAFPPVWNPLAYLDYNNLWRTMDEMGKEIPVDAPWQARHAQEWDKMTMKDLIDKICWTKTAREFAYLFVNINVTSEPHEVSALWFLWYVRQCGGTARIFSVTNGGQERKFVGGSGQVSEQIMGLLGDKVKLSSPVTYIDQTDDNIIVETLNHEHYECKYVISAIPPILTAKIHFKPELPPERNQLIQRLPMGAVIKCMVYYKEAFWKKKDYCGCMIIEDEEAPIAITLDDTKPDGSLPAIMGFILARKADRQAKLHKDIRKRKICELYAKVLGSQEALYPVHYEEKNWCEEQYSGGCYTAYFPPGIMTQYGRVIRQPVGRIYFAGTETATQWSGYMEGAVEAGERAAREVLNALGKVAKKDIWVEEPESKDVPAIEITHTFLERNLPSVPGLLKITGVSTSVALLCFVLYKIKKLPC

For another test, the target named is T2, MAO-A (Rattus norvegicus, UniProt P21396).
T2 construct: from tissue; host or cells: rat brain homogenate per the methods
The experiment in a line: Reversibility study of MAO-A inhibition (centrifugation and washing). Particulars: 30 min inhibition (6 at 10 µM, clorgyline 50 nM); three consecutive centrifugations and washings with buffer. The test is classed as biochemical. On the procedure: as §1

The structures appear in SMILES notation.

`C#CCN(C)[C@H](C)Cc1ccccc1` [I-deprenyl, reference compound]: the “reversibility of MAO-B inhibition” value at MAO-B was “remained unaltered”.
For `C#CCN(C)CCCOc1ccc(Cl)cc1Cl` [clorgyline, reference compound], the “reversibility of MAO-A inhibition” value on MAO-A is given as “remained unaltered”.
